Experimental data reported in patent US20230399313A1, “BIOLOGICAL ACTIVITIES OF 5-(2-(4-(4-FLUORO-2-METHYL-1H-INDOL-5-YLOXY)-6-METHOXYQUINOLIN-7-YLOXY)ETHYL)-5-AZASPIRO[2.4]-HEPTAN-7-OL CRYSTALLINE, PHOSPHORIC ACID SALT AND ITS ENANTIOMERS” (Advenchen Pharmaceuticals, LLC, priority 2022, published 2023).

Test system: murine colorectal CT26 cell line
Test: Murine colorectal CT26 model, combination with anti-mouse PD-1 antibody
Type: in vivo
Conditions: 200 μg/mouse/Q3d IP, CT26 mice
Experimental: The efficacy of Compound A-Xln plus immunotherapies, such as anti-mouse PD-1 antibody combination treatment was also tested.
Nude mice were inoculated with murine colorectal CT26 cell line for 7 days and randomized into groups of 6 and were then treated with vehicle, Compound A-Xln in two dosing groups once daily, anti-mouse PD-1 (PD-1) at 200 μg/mouse once every 3 days in one group, or a combination of Compound A-Xln with anti-PD-1 in two dosing groups.

For PD-1, the “Mean tumor volume D0” value (D0 (first drug administration time, baseline)) was 126.5 mm^3, the “Mean tumor volume D17” value (D17) was 1526.8 mm^3 and the “T/C D17” value (D17) was 67.90%.
